One assay concerns Blattella germanica. The experiment in a line: Impregnated filter paper test with cockroaches (Example C). The settings on record: 1000 ppm; Blatella germanica; adults on impregnated filter paper.
In assay [1] the test system is Lucilia cuprina resistent-Larven. The experiment in a line: Test with resistant Lucilia cuprina larvae. Conditions: 1000 ppm; after 24 h.

This is a selection: effects in other tests are not listed, and their absence says nothing.

Regarding `CCOP(=O)(SC(F)(F)C(F)(Cl)Cl)N(CC)CC` (racemic), the Wirkung in the assay on Blattella germanica is on record as 100%. Further, in assay [1], the Abtötungsgrad stood at 100%.

Values taken from patent EP0417558A2, “S-haloalkyl(di)(tri)(thio)phosphoric(phosphonic)acid(amide) esters” (dated 1991).
